{
  "source": "paper PMC10328330",
  "about": "(PLOS ONE, 2023)",
  "data": [
    {"test_system": "T. gondii tachyzoites (RH strain, clone 2F1)", "type": "cell-based, Toxoplasma gondii", "values": [
      {"compound": "CNC(=O)c1cc(Oc2ccc(NC(=O)Nc3ccc(Cl)c(C(F)(F)F)c3)cc2)ccn1", "note": "[Compound 9, Sorafenib]", "Selectivity Index (SI)": 19},
      {"compound": "O=C(O)c1ccc2c(c1)nc(Nc1cccc(Cl)c1)c1ccncc12", "note": "[Compound 22, Silmitasertib]", "Selectivity Index (SI)": 44},
      {"compound": "COc1cc(NC(=O)Nc2cccc(CNC(=O)O[C@H]3CCOC3)c2)ccc1-c1cnco1", "note": "[Compound 24, Merimepodib]", "Selectivity Index (SI)": 34},
      {"compound": "CCc1nc(N)nc(N)c1-c1ccc(Cl)cc1", "note": "[Compound 30, Pyrimetamine]", "Selectivity Index (SI)": ">135"}
    ]}
  ]
}
